Laboratory results from patent publication US11891655B2, “Probe for selectively characterizing enzymes involved in xenobiotic metabolism and method of making and using the same” (Battelle Memorial Institute, priority 2017, dated 2024).
pEC50: −log10 of the molar value. Like-named read-outs stand apart in the source and are kept apart here. One block for each molecule: values may come before it.

System: GSTs (G site) in mouse liver cytosol
Settings: for pEC50: read-out: effective concentration inhibiting GSH-ABP-G labeling of GSTs

pEC50 (to 10 μM probe, mouse liver cytosol, inhibitor pre-incubated 30 min): 5.75
SMILES: CCCCCCSC[C@H](NC(=O)CC[C@H](N)C(=O)O)C(=O)NCC(=O)O [S-hexylglutathione]

SMILES: C=C(CC)C(=O)c1ccc(OCC(=O)O)c(Cl)c1Cl [ethacrynic acid]
pEC50: 6.36

SMILES: N[C@@H](CCC(=O)N[C@@H](CS)C(=O)NCC(=O)O)C(=O)O [GSH, glutathione]
inhibition of GSH-ABP-G labeling by competitor added in excess (SDS-PAGE and LC-MS, mouse liver lysate): no significant inhibition
